Amino acid sequences for entries named in this document (tags omitted).
UniProt P25099, whole entry: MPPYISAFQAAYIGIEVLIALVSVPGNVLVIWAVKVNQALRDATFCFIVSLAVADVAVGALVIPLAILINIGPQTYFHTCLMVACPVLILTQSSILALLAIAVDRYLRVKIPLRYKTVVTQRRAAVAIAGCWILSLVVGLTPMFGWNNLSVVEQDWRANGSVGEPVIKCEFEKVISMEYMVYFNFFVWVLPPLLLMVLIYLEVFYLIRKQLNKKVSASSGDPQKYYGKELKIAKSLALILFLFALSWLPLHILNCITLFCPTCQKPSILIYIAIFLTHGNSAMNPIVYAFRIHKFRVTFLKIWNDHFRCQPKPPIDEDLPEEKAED

In ChEMBL document CHEMBL1126275, “Conformationally restrained, chiral (phenylisopropyl)amino-substituted pyrazolo[3,4-d]pyrimidines and purines with selectivity for adenosine A1 and A2 receptors” (J Med Chem, 1992):

Molecular target: Adenosine receptor A1 (Rattus norvegicus, UniProt P25099)
Test: Inhibition of [3H]CHA binding to Adenosine A1 receptor in rat cerebral cortical membranes
Type: cell membranes, Membrane
How it was run: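 Rat cerebral cortical membranes; displacement of [³H]CHA binding. Test compounds held as millimolar DMSO stocks, warmed to room temperature and diluted in water. Values from a single competition experiment, each concentration in triplicate.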

IC50: 4.3 µM
SMILES: CCCOc1nc2c(cnn2-c2ccccc2)c(=O)n1C
